## scFv variants of Ab-14 (heavy chain) against a SARS-CoV-2 spike peptide

Reference: Engelhart et al. 2022, doi:10.1038/s41597-022-01779-4. File: FLAb, binding data.

Target peptide (SARS-CoV-2 spike, HR2 region): PDVDLGDISGINAS

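The library (AAYL49) carries one to three amino acid substitutions per variant, with no insertions or deletions. The assay is AlphaSeq: two haploid yeast populations carry antibody and antigen on their surface. After mating in shaken culture at 30 °C for 16 h, diploids were selected and their barcode pairs sequenced. Scores were corrected for input abundance and mapped to Kd with protein pairs of known affinity run in the same pool. The assay was run in three technical replicates.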

Parent scFv Ab-14: VH joined to VL by the linker GGGGSGGGGSGGGGS. Changes lie in the heavy chain CDRs alone.
VH: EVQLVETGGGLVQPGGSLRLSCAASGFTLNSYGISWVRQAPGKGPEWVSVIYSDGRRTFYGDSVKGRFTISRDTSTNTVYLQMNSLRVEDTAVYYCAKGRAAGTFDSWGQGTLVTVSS
VL: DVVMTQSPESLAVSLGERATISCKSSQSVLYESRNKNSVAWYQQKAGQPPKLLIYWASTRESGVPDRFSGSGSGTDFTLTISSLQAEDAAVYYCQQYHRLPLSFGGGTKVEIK

Each variant is given by its three heavy chain CDRs, as the data file delimits them; those of the parent are GFTLNSYGIS, VIYSDGRRTFYGDSVK, GRAAGTFDS.
Values are log10 of the apparent Kd in nM; lower means stronger binding.
The mean shown is taken over the replicates in which the pair was detected.
Where no diploid with the target was found in any replicate, the entry reads "no signal": below detection, most likely a poor binder, though not proof of it.

CDR-H1	CDR-H2	CDR-H3	log10 Kd (nM), mean	replicates with signal
GFTLNSYGIS	VIYSDGRRTFYDDSVK	GRAALTFDS	0.80	3/3
GITLNSYGIS	VIYSDGRRTFYGDSVK	GRAAGTMDS	no signal	0/3
GFTLNSYGIP	VIYIDGRRTFYGDSVK	GRAAFTFDS	no signal	0/3
GFTQNSYPIS	VIYSPGRRTFYGDSVK	GRAAGTFDS	4.52	1/3
GFTLNSKGIS	VIYSDGRRGFEGDSVK	GRAAGTFDS	no signal	0/3
GFTDNTYGIS	VIYSDGRRTFYGDSVK	GREAGTFDS	no signal	0/3
GLTLNSYGIS	VIYFDGRRTLYGDSVK	GRAAGTFDS	2.16	1/3
GFTPNSYGIL	VIYSDGRRTFYGDSVK	GRRAGTFDS	4.68	2/3
GFTCNSYGIS	CIYSDKRRTFYGDSVK	GRAAGTFDS	no signal	0/3
GFTLNSYGIS	VIYSDGRRTFYGDSVK	GKGAGTFFS	3.81	2/3
GFTLNSGGIS	VIYSDGRRTWYGDSRK	GRAAGTFDS	3.44	1/3
GFTLNSYGIC	VIYSDGRRSFYGDVVK	GRAAGTFDS	4.10	1/3
AFTLNSYGMS	VIYSDGRRCFYGDSVK	GRAAGTFDS	no signal	0/3
GFTLNSYGVS	VIYSDGRRTFYGDSVK	GRKAGTFDS	3.46	1/3
GFTLNSYGIS	VIYSDGLRTFYGDSVK	GRAAGIFDS	no signal	0/3
GFTLNSYGIS	VIYIEGRRTFYGDSVK	GRAASTFDS	3.28	1/3
GHTLNSYGQS	QIYSDGRRTFYGDSVK	GRAAGTFDS	no signal	0/3
GFTLNSYGIS	VIYSDGRRTFMGDSVK	GMAAGCFDS	3.75	2/3
GFTLNSYGIS	VIYSDGRRTFYGKSVP	GRWAGTFDS	4.79	3/3
GFTLNSYGIS	VIYSDDRRTFYGDDVK	GRAAGTFDY	2.95	1/3
GFALNSYGIS	VIYSDGRRTFMGDSVK	GRIAGTFDS	1.04	3/3
GFWLNSYGIS	VIYSDGRRTFYGDWVK	GRAADTFDS	5.23	1/3
GFTLNSYGIS	VPYSDGRTTFYGDSVK	GDAAGTFDS	4.74	3/3
GFTLNSYGIS	VIYSDGRRTFYTDSVK	GRAAFTFDS	0.80	3/3
GFTLNSYGIS	VIGSDGRRTFYGISVK	GRAAGTFDW	no signal	0/3
GFTLNSYGIS	VIYSDGEFTFYGDSVK	GRAAGTFDS	no signal	0/3
AFTLPSYGIS	VIYSDGRRHFYGDSVK	GRAAGTFDS	no signal	0/3
GFTLNSYGIS	VITQDGRRLFYGDSVK	GRAAGTFDS	no signal	0/3
GFTLNFYGIS	VIYSDVRRTPYGDSVK	GRAAGTFDS	no signal	0/3
GFTLNSYGIR	VIYSDGRRWLYGDSVK	GRAAGTFDS	no signal	0/3
GFTLNHYGIS	VIYSPGQRTFYGDSVK	GRAAGTFDS	no signal	0/3
GFTLNSYGIS	VIYNDGRRTFYGDSVK	GRAVGTHDS	no signal	0/3
GFTLNSYMIS	VIYSDGRRTFYGMSVK	GQAAGTFDS	no signal	0/3
GFTLNPYGIH	VIYSDGGRTFYGDSVK	GRAAGTFDS	no signal	0/3
GFTLNSYGIS	VIYSDGRSTFEGDSVK	QRAAGTFDS	no signal	0/3
GFQLNSYGIS	VIYSDVRRTFYGDSVK	GHAAGTFDS	no signal	0/3
GFTLNSYGIS	VIYSDGRRTFYGDSVK	GRQFGTFDH	no signal	0/3
GCTLNSEGIS	VIYSDGRRTFYGDDVK	GRAAGTFDS	no signal	0/3
GFTLNSSGIV	VIYSDGRRTFYGDSVK	GRAAGTFMS	no signal	0/3
PFTLNSYGIS	VIYSDERRTFYGDSVK	GRHAGTFDS	4.31	3/3
GFTLPSYGIS	VIYSDGRRTFYGDKVK	GRAAGTFDS	2.01	3/3
GFTLNSYGIS	ENYSDGRRTFYGDSVK	GRAAGTGDS	4.48	2/3
GFTLNSYGIS	VSYSDGRRTFYTDSVK	GRAAATFDS	no signal	0/3
GFELNSYGIM	VIYSDGRRTFYGDSVK	GRAAGTFDK	no signal	0/3
GFTLNSYGIS	VIYSDGRRTFYGTSVK	KRAAGTFDS	4.46	1/3
GFTLNSAGIS	VIYSDCRRTFYGDSVK	GRAAFTFDS	3.97	1/3
GFTLNSYGIS	VIYSHGDRTFYGDSVK	GRAAGTFDI	2.62	1/3
GFTLNSYTIS	VIYWDGRRTFYGDSWK	GRAAGTFDS	no signal	0/3
VFTLNSYGIS	VIYSDGRRTFYGDSVK	GRQAGTFDS	2.00	3/3
GFTLNSYGIQ	VIYSDGRRTFYGDSSK	GRAAKTFDS	4.97	1/3
GPHLNSYGIS	GIYSDGRRTFYGDSVK	GRAAGTFDS	5.05	1/3

The opening 5 entries, copied out:

{"CDR-H1": "GFTLNSYGIS", "CDR-H2": "VIYSDGRRTFYDDSVK", "CDR-H3": "GRAALTFDS", "log10 Kd (nM), mean": "0.80", "replicates with signal": "3/3"}
{"CDR-H1": "GITLNSYGIS", "CDR-H2": "VIYSDGRRTFYGDSVK", "CDR-H3": "GRAAGTMDS", "log10 Kd (nM), mean": "no signal", "replicates with signal": "0/3"}
{"CDR-H1": "GFTLNSYGIP", "CDR-H2": "VIYIDGRRTFYGDSVK", "CDR-H3": "GRAAFTFDS", "log10 Kd (nM), mean": "no signal", "replicates with signal": "0/3"}
{"CDR-H1": "GFTQNSYPIS", "CDR-H2": "VIYSPGRRTFYGDSVK", "CDR-H3": "GRAAGTFDS", "log10 Kd (nM), mean": "4.52", "replicates with signal": "1/3"}
{"CDR-H1": "GFTLNSKGIS", "CDR-H2": "VIYSDGRRGFEGDSVK", "CDR-H3": "GRAAGTFDS", "log10 Kd (nM), mean": "no signal", "replicates with signal": "0/3"}

Empty control strains, which show no peptide, gave a signal in 15% of pairings with library AAYL49; the median was 4.06 and 95% of these signals were weaker than 2.83. No background was subtracted.
For reference, the parent read 0.65 as the reference entry and 4.11 (one replicate of three) as a member of this library.